{
  "source": "paper PMC10510381",
  "about": "“Alkyne as a Latent Warhead to Covalently Target SARS-CoV-2 Main Protease” (Journal of Medicinal Chemistry, 2023)",
  "test_system": "SARS-CoV-2",
  "assay_type": "cell-based",
  "data": [
    {"compound": "C#C[C@H](C[C@@H]1CCNC1=O)NC(=O)[C@@H]1[C@@H]2[C@H](CN1C(=O)[C@@H](NC(=O)C(F)(F)F)C(C)(C)C)C2(C)C", "note": "[Compound 4d, O=C1NCC[C@H]1C[C@@H](C#C)NC([C@H]2N(C([C@@H](NC(C(F)(F)F)=O)C(C)(C)C)=O)C[C@H]3[C@@H]2C3(C)C)=O]", "values": [
      {"measurement": "antiviral activity", "result": "strong, dose-dependent antiviral activity"},
      {"measurement": "inhibition of SARS-CoV-2 infection", "result": "nearly complete inhibition"}
    ]}
  ]
}
